# Laboratory results from patent US9974792B2, “Methods for treating cancers” (Gilead Sciences, Inc., priority 2013, dated 2018).
# Columns and labels:
# [1] = tested on: subjects with CLL, FL, lymphoplasmacytoid lymphoma/SLL/marginal zone lymphoma, MCL, or DLBCL; conditions: N = 145
# Experimental: A phase 2, open-label, single-agent study was completed to evaluate the efficacy, safety, tolerability, and pharmacodynamics of entospletinib in subjects with relapsed or refractory hematologic malignancies.
# Treatment with entospletinib was at a dose of 800 mg twice a day over 28-day cycles under fasted conditions. Fasting was defined as no food or liquids other than water for 2 hours pre- and 1 hour post-dose.
# Secondary end points included tolerability, objective response rate (ORR), duration of response (DOR), time to response, and lymph node response rate. […] Exploratory end points included plasma drug concentrations and pharmacodynamic biomarkers.
# Subjects were allowed to enroll in the study if they had cytopenias due to CLL. Treatment-emergent cytopenias were defined as a cytopenia that worsened in the period from the first dose of study treatment to 30 days after the last dose of study treatment.
# [2] = target: Syk (Homo sapiens, UniProt P43405); assay: cell-based
compound,measurement,setting,value
"c1cn2cc(-c3ccc4cn[nH]c4c3)nc(Nc3ccc(N4CCOCC4)cc3)c2n1 [compound of formula I, 6-(1H-indazol-6-yl)-N-(4-morpholinophenyl)imidazo[1,2-a]pyrazin-8-amine]","Serious AE: Dehydration, %",[1],(2.1) %
same,EC50,[2],763 nM
